Poly(L-Lysine.HCl)55-b-poly(rac-Leucine)20 [K55(rac-L)20]
cytotoxicity of block-sequence versus random-sequence copolypeptide (mouse keratinocytes): less cytotoxic
cytotoxicity in vitro of emulsions (human keratinocytes): less cytotoxicity

From patent publication US9017730B2 (The Regents of the University of California, priority 2010, dated 2015)
